Antibody variant affinities, Ab-14 light chain, assay B

Target: peptide PDVDLGDISGINAS, taken from heptad repeat 2 (HR2) of SARS-CoV-2 spike.

Parent scFv Ab-14: VH joined to VL by the linker GGGGSGGGGSGGGGS. Changes lie in the light chain CDRs alone.
VH: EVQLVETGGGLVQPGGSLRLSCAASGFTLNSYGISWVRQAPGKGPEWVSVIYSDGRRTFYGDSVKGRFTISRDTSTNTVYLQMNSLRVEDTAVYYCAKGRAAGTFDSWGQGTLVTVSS
VL: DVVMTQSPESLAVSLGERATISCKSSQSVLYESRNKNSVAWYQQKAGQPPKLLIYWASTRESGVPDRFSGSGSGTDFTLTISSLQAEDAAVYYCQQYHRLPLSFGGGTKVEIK

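Phage display of a naive human antibody library on the peptide gave the parent. The variants were designed computationally from a first round of random CDR variants and then made and measured. Several design methods are mixed in this list. The scFvs were displayed on barcoded MATa yeast, the peptide on MATalpha yeast. The frequency of each diploid, read from paired DNA barcodes, reflects how well the two displayed proteins bind. Scores were corrected for input abundance and mapped to Kd with protein pairs of known affinity run in the same pool. Mating was done six times.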

Changes read parent residue, position, new residue, counted from the first residue of the VL shown. This list holds designs with at most six substitutions. The read-out is the apparent dissociation constant on a log10 scale (nM): the lower, the stronger. The mean shown is taken over the replicates in which the pair was detected. "nd" means that the variant was in the library but no mating with the target was seen in any replicate; the authors take this as a sign of poor binding, and no number exists.

The variant S25C V29D W56D gave 0.45 (6 of 6 replicates). For S25T V29D R34N, the assay gave nd (0 of 6 replicates). For S25V W56G, the assay gave -0.35 (12 of 12 replicates). The variant Q27F K36Y S62D H98P L100P P101Y showed 1.40 (1 of 6 replicates). The variant K24M S25C S26D S28D showed nd (0 of 6 replicates).

The variant L30K Y31G E32G W56D gave 0.53 (6 of 6 replicates). The variant S25Y W56M showed 0.83 (6 of 6 replicates). The variant S25V S26Q L30P W56D showed 0.11 (6 of 6 replicates). For S26L Y31D N35D W56H S62D, the assay gave 0.18 (6 of 6 replicates). The variant V29T L30I S62L gave 2.33 (1 of 6 replicates).

With S25C Q27N H98F the result was 1.54 (4 of 6 replicates). The variant K24D V29E W56G gave -0.02 (6 of 6 replicates). With S25G W56S Q95S the result was 1.32 (6 of 6 replicates). With S25L S26Q V29A W56N the result was -0.14 (6 of 6 replicates). The variant S25L V29H S38N W56Q gave -0.42 (6 of 6 replicates).

The variant S25L S26E V29W W56N T59Q E61L showed -0.20 (6 of 6 replicates). The variant S25L W56Q S103M showed 0.23 (6 of 6 replicates). The variant S26P N37H S58N Q95E R99S showed nd (0 of 6 replicates). For S28E Y31V E32T, the assay gave 1.95 (6 of 6 replicates). The variant K24N S25L V29A W56G A57G S58N gave 0.52 (6 of 6 replicates).

With Y31D W56Q S62E L100M the result was 0.97 (6 of 6 replicates). With S25L V29M N35M W56N T59Q E61M the result was -0.08 (6 of 6 replicates). With S25L V29F S33E W56N E61L the result was -0.28 (6 of 6 replicates). With K24H S25L S33D W56N the result was -0.04 (6 of 6 replicates). With S25L V29Q S38N W56G the result was -0.38 (6 of 6 replicates).

The variant K24H L30G Y31T W56H gave 0.80 (6 of 6 replicates). The variant Q27P R34F S38F showed 2.00 (6 of 6 replicates). The variant S25L Q27P E61Q showed 0.14 (6 of 6 replicates). The variant S26E Q27I Y31Q K36Q W56S S62V showed 0.15 (6 of 6 replicates). The variant L30P R34Y gave 1.65 (1 of 6 replicates).

The variant K24Q P101V S103K gave nd (0 of 6 replicates). For S25L Q27M V29E W56N E61L, the assay gave -0.16 (6 of 6 replicates). The variant Q27P S28F L30I W56H R99I showed 0.67 (6 of 6 replicates). The variant S25L V29G W56N S62V gave -0.55 (6 of 6 replicates). The variant R34Q N35E showed 1.58 (6 of 6 replicates).

The variant W56K Q95V Q96T R99H L102N showed nd (0 of 6 replicates). The variant S25L S26Q Q27F S28G W56G Q96A gave -0.06 (6 of 6 replicates). For K24H S25L W56N A57G, the assay gave -0.09 (6 of 6 replicates). The variant E32F K36N W56C showed 3.53 (1 of 6 replicates). The variant Q27L R99M showed 2.17 (2 of 6 replicates).

The closing 6 entries, repeated:

changes	log10 Kd (nM), mean	detected
R34Q N35E	1.58	6/6
W56K Q95V Q96T R99H L102N	nd	0/6
S25L S26Q Q27F S28G W56G Q96A	-0.06	6/6
K24H S25L W56N A57G	-0.09	6/6
E32F K36N W56C	3.53	1/6
Q27L R99M	2.17	2/6

A sequence that the file lists under several names has all its replicates pooled. Nonspecific signal, from three strains lacking the peptide, appeared in 4% of pairings of all light chain designs, centred on 2.64 (5% of these signals below 1.59); values are not corrected for it. Of ten entries with the parent sequence, four were seen in most replicates (averages 0.34 to 2.37), three in one and three in none, so single entries are noisy. The authors' rule: three or more of the six replicates give a measured affinity, fewer mean a poor binder. The range of this assay differs from that of the first round, and the authors advise against merging the two.

Data: MIT Lincoln Laboratory AlphaSeq set, Li et al. 2023, doi:10.1038/s41467-023-39022-2, as distributed in FLAb.